Assay results as given in PMC12136037, “Type II kinase inhibitors that target Parkinson’s disease–associated LRRK2” (Science Advances, 2025).

Chains of the proteins cited; added tags and fusions are not shown. Residues count along the entry.
UniProt Q5S007, 1327-2527 limits assumed: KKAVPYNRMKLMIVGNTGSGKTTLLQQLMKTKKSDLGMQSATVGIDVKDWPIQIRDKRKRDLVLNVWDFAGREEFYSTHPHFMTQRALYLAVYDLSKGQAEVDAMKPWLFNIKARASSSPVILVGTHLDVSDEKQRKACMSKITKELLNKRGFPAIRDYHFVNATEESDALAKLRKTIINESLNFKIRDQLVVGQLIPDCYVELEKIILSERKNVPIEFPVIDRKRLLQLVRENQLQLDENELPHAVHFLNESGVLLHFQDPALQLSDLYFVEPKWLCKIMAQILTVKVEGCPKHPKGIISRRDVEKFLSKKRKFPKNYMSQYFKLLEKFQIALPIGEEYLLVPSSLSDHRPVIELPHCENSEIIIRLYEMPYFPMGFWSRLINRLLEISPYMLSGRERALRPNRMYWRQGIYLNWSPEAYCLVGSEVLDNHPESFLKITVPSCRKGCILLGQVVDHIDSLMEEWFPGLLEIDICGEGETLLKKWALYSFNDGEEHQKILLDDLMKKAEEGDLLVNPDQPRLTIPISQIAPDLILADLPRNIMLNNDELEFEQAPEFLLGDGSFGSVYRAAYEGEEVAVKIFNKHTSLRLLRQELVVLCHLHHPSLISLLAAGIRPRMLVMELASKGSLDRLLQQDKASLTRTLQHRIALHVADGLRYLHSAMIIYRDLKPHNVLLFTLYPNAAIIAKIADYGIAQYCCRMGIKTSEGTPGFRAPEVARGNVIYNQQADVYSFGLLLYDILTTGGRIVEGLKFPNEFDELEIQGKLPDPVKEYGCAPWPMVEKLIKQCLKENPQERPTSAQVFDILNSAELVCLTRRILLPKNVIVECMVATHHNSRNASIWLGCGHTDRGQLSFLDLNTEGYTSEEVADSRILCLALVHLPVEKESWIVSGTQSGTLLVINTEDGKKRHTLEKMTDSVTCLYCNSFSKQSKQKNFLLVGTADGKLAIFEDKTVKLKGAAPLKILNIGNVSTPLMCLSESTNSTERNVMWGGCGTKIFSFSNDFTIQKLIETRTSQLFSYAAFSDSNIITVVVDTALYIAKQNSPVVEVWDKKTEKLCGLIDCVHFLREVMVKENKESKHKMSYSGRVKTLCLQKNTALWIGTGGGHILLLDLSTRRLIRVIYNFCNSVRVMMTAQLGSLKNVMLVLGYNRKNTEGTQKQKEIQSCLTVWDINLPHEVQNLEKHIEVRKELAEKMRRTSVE
UniProt Q5S007, 1847-2527 limits assumed: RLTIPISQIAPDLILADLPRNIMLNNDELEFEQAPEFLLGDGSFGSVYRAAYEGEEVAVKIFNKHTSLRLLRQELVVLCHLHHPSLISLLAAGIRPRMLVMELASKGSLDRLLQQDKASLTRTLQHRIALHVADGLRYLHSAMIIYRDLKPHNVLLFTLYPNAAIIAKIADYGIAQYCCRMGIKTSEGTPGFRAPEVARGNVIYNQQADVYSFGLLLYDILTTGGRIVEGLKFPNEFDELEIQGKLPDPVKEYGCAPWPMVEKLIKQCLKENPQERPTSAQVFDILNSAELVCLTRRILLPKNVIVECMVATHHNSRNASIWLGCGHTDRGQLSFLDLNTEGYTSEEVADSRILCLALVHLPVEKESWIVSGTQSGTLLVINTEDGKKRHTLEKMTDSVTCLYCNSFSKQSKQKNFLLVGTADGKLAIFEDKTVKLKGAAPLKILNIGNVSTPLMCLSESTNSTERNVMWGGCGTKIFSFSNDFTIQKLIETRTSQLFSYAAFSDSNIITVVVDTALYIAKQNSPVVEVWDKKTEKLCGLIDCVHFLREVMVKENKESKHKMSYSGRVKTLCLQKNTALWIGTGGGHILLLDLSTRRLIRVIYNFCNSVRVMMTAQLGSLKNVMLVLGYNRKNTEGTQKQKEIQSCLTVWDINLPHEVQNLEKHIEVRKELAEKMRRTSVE

Experiments:
LRRK2^KW = LRRK2^KW (Homo sapiens, UniProt Q5S007); assay: DSF thermal stabilization of LRRK2^KW; type: binding; conditions: 10 μM inhibitor
LRRK2^RCKW = LRRK2^RCKW (Homo sapiens, UniProt Q5S007); assay: Biochemical LRRK2 activity assay (PhosphoSense, AssayQuant SOX peptide AQT0615); conditions: Table S2, bound printed in μM under head IC50 [nM]

O=C(Nc1ccc(F)cc1)C1(C(=O)Nc2ccc3cn[nH]c3c2)CC1
∆Tm (K) (LRRK2^KW): 1.0 K | IC50 (LRRK2^RCKW): > 15 µM
